The values below come from patent EP4821554A2, “COMPOSITIONS AND METHODS FOR THE TREATMENT OF DEPRESSION” (dated 2026).

The test system of series [1] is subjects with MDD who have had an inadequate response to SSRI/SNRI treatment. Briefly: MADRS total score, adjunctive aticaprant vs placebo, Example 1 clinical study. To be noted: MADRS least squares mean change from baseline, fITT (Fig. 7B).
Series [2] shares this test system. Briefly: Treatment-emergent adverse events, full safety analysis set, Example 1.
For series [3] the test system is unchanged. Briefly: HAM-A6 total score (core symptoms of anxiety), Example 1 clinical study. To be noted: change from treatment baseline at Treatment Week 6.
The mark [4] stands for this setting: Table 23, Treatment Period, Full Safety Analysis Set, aticaprant 10mg (N=85).

`Cc1cc(C)cc([C@@H]2CCCN2Cc2ccc(Oc3ccc(C(N)=O)cc3F)cc2)c1`: the “onset of effect: significant treatment effect favoring aticaprant seen as early as” value in series [1] turned out to be 3 week. Also, in series [2] (setting [4]), the “Subjects with 1 or more serious TEAE” value is listed as 0 n (%) and the “Subjects with TEAE leading to death” value is recorded as 0 n (%). Moreover, the “subjects who discontinued during the treatment period due to treatment-emergent adverse events” value in series [2] (due to diarrhea, nausea, vomiting and headache) came to 1 subject. Moreover, the “patients experienced acute cholecystitis” value in series [2] (treatment period) was found to be 0 patients. Also, the “HAMA6 score improvement vs. placebo” value in series [3] is given as “greater improvement”.
